Literature values, collected in patent publication US11672759B2 (priority 2017, dated 2023).

Legend:
[1] = at 20° C.
[2] = in vivo

Compound: COc1cc2c(c(OC)c1OC)-c1ccc(OC)c(=O)cc1[C@@H](NC(C)=O)CC2 [colchicine, N-((7S)-5,6,7,9-tetrahydro-1,2,3,10-tetramethoxy-9-oxobenzo(a)heptalen-7-yl)-acetamide]
- pK [1]: 12.35
- plasma levels in the therapeutic range [2]: 0.5 to 3 ng/mL
